From ChEMBL document CHEMBL1649420, “Identifying chelators for metalloprotein inhibitors using a fragment-based approach” (J Med Chem, 2011)

Sequences of proteins named here, by UniProt entry; tags and fusion partners are left off. A change or cut given only in a name is not applied to a line headed by its entry.
UniProt P08253: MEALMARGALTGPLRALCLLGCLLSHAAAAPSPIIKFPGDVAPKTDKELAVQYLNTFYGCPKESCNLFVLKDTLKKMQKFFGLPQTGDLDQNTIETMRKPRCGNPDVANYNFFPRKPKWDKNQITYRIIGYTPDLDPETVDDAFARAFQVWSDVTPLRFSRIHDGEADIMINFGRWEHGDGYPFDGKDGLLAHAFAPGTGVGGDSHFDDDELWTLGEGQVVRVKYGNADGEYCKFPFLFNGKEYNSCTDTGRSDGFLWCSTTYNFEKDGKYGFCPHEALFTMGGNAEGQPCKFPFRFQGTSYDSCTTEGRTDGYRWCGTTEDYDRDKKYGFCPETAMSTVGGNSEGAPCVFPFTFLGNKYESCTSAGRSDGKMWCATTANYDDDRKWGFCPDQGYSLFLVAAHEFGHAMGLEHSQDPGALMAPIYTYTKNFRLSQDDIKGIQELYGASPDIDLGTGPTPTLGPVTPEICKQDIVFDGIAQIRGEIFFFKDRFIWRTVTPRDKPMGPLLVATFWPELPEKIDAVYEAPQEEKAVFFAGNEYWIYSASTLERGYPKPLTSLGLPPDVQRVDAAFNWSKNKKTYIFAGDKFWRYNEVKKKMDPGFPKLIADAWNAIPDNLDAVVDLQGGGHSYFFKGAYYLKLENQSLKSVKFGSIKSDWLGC
UniProt P08254: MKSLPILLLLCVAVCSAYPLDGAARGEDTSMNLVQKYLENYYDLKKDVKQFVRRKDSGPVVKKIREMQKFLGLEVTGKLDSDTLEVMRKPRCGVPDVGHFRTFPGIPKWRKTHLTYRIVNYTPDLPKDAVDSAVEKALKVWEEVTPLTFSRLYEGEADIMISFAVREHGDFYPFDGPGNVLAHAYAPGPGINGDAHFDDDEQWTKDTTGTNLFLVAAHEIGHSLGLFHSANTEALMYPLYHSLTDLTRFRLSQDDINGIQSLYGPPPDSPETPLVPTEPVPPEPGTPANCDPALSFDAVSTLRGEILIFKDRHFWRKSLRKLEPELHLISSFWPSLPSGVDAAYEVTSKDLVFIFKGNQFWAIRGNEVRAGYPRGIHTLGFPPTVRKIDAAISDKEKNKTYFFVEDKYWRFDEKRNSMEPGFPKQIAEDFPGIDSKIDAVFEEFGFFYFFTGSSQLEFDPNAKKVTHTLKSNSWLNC

What was measured:
[1] = target: 72 kDa type IV collagenase (Homo sapiens, UniProt P08253); conditions: at 1 mM;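 further: recombinant human enzyme, inhibition read after a 30 min incubation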
[2] = target: T1, Nitric oxide synthase, inducible (Mus musculus) (UniProt P29477); conditions: at 1 mM;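 further: recombinant enzyme, activity read out colorimetrically after 40 min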
T1 sequence (whole entry): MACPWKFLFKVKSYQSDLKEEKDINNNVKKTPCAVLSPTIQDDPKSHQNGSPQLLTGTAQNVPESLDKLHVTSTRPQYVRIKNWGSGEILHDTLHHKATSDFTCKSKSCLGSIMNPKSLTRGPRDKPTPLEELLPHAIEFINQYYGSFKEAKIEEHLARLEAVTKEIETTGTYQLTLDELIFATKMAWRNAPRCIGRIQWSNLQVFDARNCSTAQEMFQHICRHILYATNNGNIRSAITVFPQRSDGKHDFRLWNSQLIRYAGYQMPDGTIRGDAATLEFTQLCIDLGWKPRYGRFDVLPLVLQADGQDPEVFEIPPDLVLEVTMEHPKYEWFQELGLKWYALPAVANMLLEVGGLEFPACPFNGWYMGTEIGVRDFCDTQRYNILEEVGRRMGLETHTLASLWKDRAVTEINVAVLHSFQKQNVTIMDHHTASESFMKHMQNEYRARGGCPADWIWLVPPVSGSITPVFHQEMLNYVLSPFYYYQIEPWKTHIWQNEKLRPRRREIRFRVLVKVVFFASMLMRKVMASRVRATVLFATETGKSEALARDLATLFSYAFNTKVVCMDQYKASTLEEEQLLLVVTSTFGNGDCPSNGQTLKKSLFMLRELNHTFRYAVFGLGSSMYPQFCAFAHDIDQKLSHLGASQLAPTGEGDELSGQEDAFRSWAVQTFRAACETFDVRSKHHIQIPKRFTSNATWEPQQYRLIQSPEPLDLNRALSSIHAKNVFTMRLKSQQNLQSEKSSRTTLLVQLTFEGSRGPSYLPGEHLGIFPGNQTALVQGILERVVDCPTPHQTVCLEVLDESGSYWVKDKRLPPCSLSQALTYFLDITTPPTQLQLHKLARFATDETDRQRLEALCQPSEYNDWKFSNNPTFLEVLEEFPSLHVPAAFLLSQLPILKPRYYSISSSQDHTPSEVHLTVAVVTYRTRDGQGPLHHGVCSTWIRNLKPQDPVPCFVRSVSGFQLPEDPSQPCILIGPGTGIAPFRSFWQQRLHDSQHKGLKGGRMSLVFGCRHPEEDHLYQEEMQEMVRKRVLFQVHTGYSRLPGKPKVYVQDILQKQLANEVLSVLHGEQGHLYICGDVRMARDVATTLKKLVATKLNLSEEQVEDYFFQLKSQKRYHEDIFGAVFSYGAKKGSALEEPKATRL

[3] = target: Stromelysin-1 (Homo sapiens) (UniProt P08254); conditions: at 1 mM;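 further: recombinant enzyme, inhibition read after a 30 min incubation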
[4] = target: T2, Polyunsaturated fatty acid 5-lipoxygenase (Homo sapiens) (UniProt P09917); experiment: Inhibition of human recombinant 5-lipoxygenase at 1 mM after 10 mins by fluorescence assay
T2 sequence (whole entry): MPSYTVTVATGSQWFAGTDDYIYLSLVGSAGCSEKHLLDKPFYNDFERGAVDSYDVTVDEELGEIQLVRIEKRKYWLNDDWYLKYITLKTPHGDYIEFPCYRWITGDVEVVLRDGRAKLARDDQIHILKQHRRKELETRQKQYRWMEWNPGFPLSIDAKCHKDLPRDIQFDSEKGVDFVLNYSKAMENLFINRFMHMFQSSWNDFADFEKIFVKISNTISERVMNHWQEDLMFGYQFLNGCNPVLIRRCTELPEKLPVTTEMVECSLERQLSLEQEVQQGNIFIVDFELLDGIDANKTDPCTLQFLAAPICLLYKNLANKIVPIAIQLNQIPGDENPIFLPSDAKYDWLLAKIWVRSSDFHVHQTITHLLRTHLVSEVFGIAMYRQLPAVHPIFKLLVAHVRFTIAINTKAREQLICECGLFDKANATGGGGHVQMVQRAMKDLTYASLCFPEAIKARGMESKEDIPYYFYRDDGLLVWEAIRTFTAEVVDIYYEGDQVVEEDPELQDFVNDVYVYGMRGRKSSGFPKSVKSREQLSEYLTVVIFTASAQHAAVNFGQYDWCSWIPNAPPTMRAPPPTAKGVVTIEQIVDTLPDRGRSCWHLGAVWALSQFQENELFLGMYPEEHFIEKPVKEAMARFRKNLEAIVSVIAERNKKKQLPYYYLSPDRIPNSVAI

**Q.** How did the inhibition [1] turn out when `Oc1nccc(S)n1` was run?
**A.** The inhibition was 89%.

**Q.** Which inhibition [2] does the source give for `O=c1ccc2ccccc2[nH]1` here?
**A.** Its inhibition is 54%.

**Q.** `O=C(O)c1cccnc1C(=O)O` was tested. Which inhibition [3] did it give?
**A.** The inhibition was 82%.

**Q.** With `O=c1cc[nH]c(=S)[nH]1` as the molecule, how does the inhibition [4] read?
**A.** Its inhibition is 71%.
